The source of these data is PMC3335822 (PLoS ONE, 2012).

Test [1] deals with T1, human EYA3 (Homo sapiens, UniProt Q99504).
T1 sequence (Q99504 127-573): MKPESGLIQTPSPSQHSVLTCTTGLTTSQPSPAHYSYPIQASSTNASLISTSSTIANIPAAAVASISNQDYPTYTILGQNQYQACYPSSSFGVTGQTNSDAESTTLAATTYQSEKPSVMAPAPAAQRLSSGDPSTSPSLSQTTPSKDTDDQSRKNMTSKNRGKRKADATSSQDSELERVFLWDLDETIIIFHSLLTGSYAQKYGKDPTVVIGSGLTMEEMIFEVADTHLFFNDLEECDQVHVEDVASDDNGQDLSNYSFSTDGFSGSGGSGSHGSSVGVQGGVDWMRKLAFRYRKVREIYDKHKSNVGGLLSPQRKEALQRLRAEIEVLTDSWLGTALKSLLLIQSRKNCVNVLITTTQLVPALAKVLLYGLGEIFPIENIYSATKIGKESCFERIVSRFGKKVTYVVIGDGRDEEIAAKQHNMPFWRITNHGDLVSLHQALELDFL
Briefly: biochemical.

Test [2] addresses T1, human EYA3. Briefly: pNPP hydrolysis by full-length EYA3. Also noted: residues 127–573 of NM_001990, isoform 1; His-GST (poly-histidine, glutathione-S-transferase) with TVMV protease site (cleaved yes); made in house. The settings on record: for IC50: full-length human EYA3, substrate pNPP. In kind it is biochemical. The text has this: The catalytic domain (ED) of mouse Eyes Absent 3 (Eya3(223–510)) was purified as described before. Human Eyes Absent 3 isoform 2 (representing the major species identified in human cell lines by mass spectrometry and residues 127–573 of NM_001990, isoform 1) was sub-cloned into pDEST565 to express a poly-histidine- Glutathione-S-transferase (His-GST) tagged fusion protein with a TVMV protease site. The protein was purified by glutathione-S-transferase affinity chromatography followed by TVMV cleavage, Ni-NTA chromatography, and finally size exclusion chromatography. […]
(§1) Compounds were dissolved in DMSO and diluted as needed. […] Reactions were incubated at 30°C for 30 minutes and quenched with 100 mM EDTA pH 10. IC50 values were then calculated directly from regression curves using PRISM. All reported values are the mean of two independent experiments.

The target of test [3] is T2, Eya3(ED) (Mus musculus, UniProt P97480).
T2 construct: The catalytic domain (ED) of mouse Eyes Absent 3 (Eya3(223–510)) was purified; made in house
T2 sequence (P97480 223-510): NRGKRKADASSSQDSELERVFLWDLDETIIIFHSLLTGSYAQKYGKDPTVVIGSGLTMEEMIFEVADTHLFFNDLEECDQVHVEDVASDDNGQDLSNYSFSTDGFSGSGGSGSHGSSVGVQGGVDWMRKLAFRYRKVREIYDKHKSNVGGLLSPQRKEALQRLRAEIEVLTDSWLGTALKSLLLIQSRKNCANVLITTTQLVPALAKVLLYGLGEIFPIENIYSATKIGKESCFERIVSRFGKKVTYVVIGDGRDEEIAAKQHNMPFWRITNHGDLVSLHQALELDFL
Briefly: pNPP hydrolysis by the catalytic domain of Eya3. In kind it is biochemical.
Text: The catalytic domain (ED) of mouse Eyes Absent 3 (Eya3(223–510)) was purified as described before. Human Eyes Absent 3 isoform 2 (representing the major species identified in human cell lines by mass spectrometry and residues 127–573 of NM_001990, isoform 1) was sub-cloned into pDEST565 to express a poly-histidine- Glutathione-S-transferase (His-GST) tagged fusion protein with a TVMV protease site. The protein was purified by glutathione-S-transferase affinity chromatography followed by TVMV cleavage, Ni-NTA chromatography, and finally size exclusion chromatography.
The NCI Diversity Set II was obtained from the NCI in 96-well trays from the NIH Molecular Libraries Program and stored as 10 mM stocks in DMSO. An initial manual screen was conducted using the previously described p-nitrophenylphosphate assay and mouse Eya3(223–510) in a reaction mixture containing 20 mM MES pH 6, 2 mM MgCl2, 125 μM inhibitor, 3.4 mM para-nitrophenol phosphate (pNPP) and 0.01 μg/µL enzyme.
as §1

For orientation: IC50 means the concentration at which inhibition is half-maximal. Low readings indicate inhibition by little substance, high ones a need for much substance. Consider `CCc1oc2ccccc2c1C(=O)c1cc(Br)c(O)c(Br)c1` [Compound 1, Benzbromarone, reference compound], for which the 50% inhibitory concentration (IC50) was found to be 37 µM in test [1], 8.3 µM in test [2] and 11 µM in test [3]. Besides, in test [2] (pNPP hydrolysis, EYA3 versus PTP1B), the “fold greater activity towards EYA3 than PTP1B” value is 4.7–6.5 fold.

In test [2], `CCCCc1oc2ccccc2c1C(=O)c1ccc(O)cc1` [Compound 1b] yielded an IC50 of 15.2 µM.
